scFv variants of Ab-91 (heavy chain) against a SARS-CoV-2 spike peptide

Reference: Engelhart et al. 2022, doi:10.1038/s41597-022-01779-4. File: FLAb, binding data.

Binding partner: SARS-CoV-2 spike HR2 peptide, sequence PDVDLGDISGINAS.

Each scFv is VL, a (GGGGS)3 linker, VH, as in the parent Ab-91, and differs from it in the CDRs of the heavy chain only.
VL: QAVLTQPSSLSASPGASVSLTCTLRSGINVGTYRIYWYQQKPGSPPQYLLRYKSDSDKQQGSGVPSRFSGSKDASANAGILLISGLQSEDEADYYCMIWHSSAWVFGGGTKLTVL
VH: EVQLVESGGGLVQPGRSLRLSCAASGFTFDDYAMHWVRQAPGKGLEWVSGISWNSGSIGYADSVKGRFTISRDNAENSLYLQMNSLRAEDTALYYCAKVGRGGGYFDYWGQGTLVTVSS

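Phage display of a naive human antibody library on the peptide gave the parent. In library AAYL51, one, two or three CDR residues were substituted; doubles and triples were drawn at random. In AlphaSeq, yeast of one mating type display the scFv and yeast of the other type display the target. Mating (16 h, 30 °C) was followed by selection of diploids and sequencing of their barcodes. Each replicate has its own calibration line, from reference interactions of the BCL2 family. There are three technical replicates.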

Positions count from residue 1 of the parent VH; H35W puts W in place of H. All variants listed here change H35 of the VH, counted from its first residue. Each Kd is an estimate from the mating assay, the geometric mean of the replicates in which the pair was seen; lower is stronger. Where no diploid with the target was found in any replicate, the entry reads "no signal": below detection, most likely a poor binder, though not proof of it. In this assay the parent's reference entry averaged 72 nM; its copy inside this library read 7.5 nM. Nonspecific signal, from three strains lacking the peptide, appeared in 21% of pairings of library AAYL51, centred on 34 µM (5% of these signals below 1.8 µM); values are not corrected for it.

changes,apparent Kd,detected
H35W/S52M/Y60K,no signal,0 of 3
F29Q/D30T/H35M,no signal,0 of 3
M34P/H35T/S63K,no signal,0 of 3
H35S/G56W/G59A,100 µM,2 of 3
A33I/H35C/G50E,2.7 µM,1 of 3
H35N/Y60F/A61T,67 µM,1 of 3
G26C/D30I/H35W,13 µM,2 of 3
H35F/D107T,no signal,0 of 3
H35M,51 µM,2 of 3
G26W/H35V/V64P,2.3 µM,1 of 3
D31V/H35P/Y60V,no signal,0 of 3
D30Q/H35D/S52Q,170 µM,1 of 3
D30Y/H35K/G103S,no signal,0 of 3
H35F/S52C/V99L,140 µM,1 of 3
H35A/K65M/D107V,49 µM,1 of 3
G26A/H35M/F106W,120 µM,2 of 3
F27L/H35G/G104Y,no signal,0 of 3
H35D/I51S/Y105F,110 µM,1 of 3
M34G/H35A/Y60L,8.9 µM,1 of 3
Y32M/H35R/G59W,no signal,0 of 3
A33F/H35E/A61V,no signal,0 of 3
G26T/H35K/I58A,110 µM,1 of 3
H35M/S55D/S63M,340 µM,1 of 3
M34V/H35N/G100Q,no signal,0 of 3
H35S/G56T/R101V,no signal,0 of 3
F27G/H35L/Y108M,19 µM,2 of 3
H35N/W53F/V64S,73 µM,2 of 3
H35C/V99Q/D107T,96 µM,1 of 3
H35E/G100R/G104V,110 µM,3 of 3
H35A/A61K/G102N,140 µM,3 of 3
H35G/G56E/V64P,1.1 µM,1 of 3
D30T/H35G/D107P,no signal,0 of 3
H35Y/A61V,11 µM,3 of 3
T28F/H35V/G102N,no signal,0 of 3
M34N/H35L/N54T,320 µM,1 of 3
D30M/H35L/G56A,210 µM,1 of 3
H35D/S52C/G100I,1.3 mM,1 of 3
H35Q/S55I/D107L,6.6 µM,1 of 3
H35K/R101M/Y108L,32 µM,1 of 3
D31V/H35Q/S57T,no signal,0 of 3
H35G/K65N/G103F,no signal,0 of 3
Y32M/H35M/K65N,no signal,0 of 3
D31A/H35T/Y105N,no signal,0 of 3
H35W/I51G/S52Y,no signal,0 of 3
H35P/S55I/V64E,no signal,0 of 3
F27C/D31I/H35P,46 µM,2 of 3
D31Q/H35F,no signal,0 of 3
H35R/D62Y/R101P,no signal,0 of 3
H35D/W53I/Y108T,no signal,0 of 3
H35S/W53C/F106T,120 µM,3 of 3
H35C/G50P/G103D,no signal,0 of 3
D31Q/M34L/H35K,no signal,0 of 3
H35E/S55Y/G103I,no signal,0 of 3
H35E/A61G/F106V,77 µM,2 of 3
H35C/G56Y/Y108H,54 µM,2 of 3
H35I,54 µM,1 of 3
F27Y/A33H/H35K,53 µM,3 of 3
H35L/G56H/F106Y,no signal,0 of 3
Y32M/H35K/D107H,no signal,0 of 3
D31K/H35M/Y105P,48 µM,2 of 3
H35D/N54F,no signal,0 of 3
F29R/H35Q/V64H,12 µM,2 of 3
H35V/V64E/G100Q,31 µM,1 of 3
H35G/N54H/G56T,15 µM,2 of 3
H35R,15 µM,2 of 3
F27S/H35M,no signal,0 of 3
D30Y/H35C/G104Y,17 µM,1 of 3
H35A/G56M/G100S,420 µM,3 of 3
T28S/H35K/Y108G,270 µM,3 of 3
H35G/D62V,14 µM,2 of 3
H35L/G50W/Y60P,3.2 µM,1 of 3
M34D/H35G/D62A,97 µM,1 of 3
H35P/S55V/G56H,17 µM,2 of 3

The opening 7 entries, copied out:

{"changes": "H35W/S52M/Y60K", "apparent Kd": "no signal", "detected": "0 of 3"}
{"changes": "F29Q/D30T/H35M", "apparent Kd": "no signal", "detected": "0 of 3"}
{"changes": "M34P/H35T/S63K", "apparent Kd": "no signal", "detected": "0 of 3"}
{"changes": "H35S/G56W/G59A", "apparent Kd": "100 µM", "detected": "2 of 3"}
{"changes": "A33I/H35C/G50E", "apparent Kd": "2.7 µM", "detected": "1 of 3"}
{"changes": "H35N/Y60F/A61T", "apparent Kd": "67 µM", "detected": "1 of 3"}
{"changes": "G26C/D30I/H35W", "apparent Kd": "13 µM", "detected": "2 of 3"}